Reference: ChEMBL document CHEMBL4219051, “Cyclin-Dependent Kinase 8: A New Hope in Targeted Cancer Therapy?” (J Med Chem, 2018)

Sequences of proteins named here, by UniProt entry; tags and fusion partners are left off. A change or cut given only in a name is not applied to a line headed by its entry.
UniProt Q9BWU1: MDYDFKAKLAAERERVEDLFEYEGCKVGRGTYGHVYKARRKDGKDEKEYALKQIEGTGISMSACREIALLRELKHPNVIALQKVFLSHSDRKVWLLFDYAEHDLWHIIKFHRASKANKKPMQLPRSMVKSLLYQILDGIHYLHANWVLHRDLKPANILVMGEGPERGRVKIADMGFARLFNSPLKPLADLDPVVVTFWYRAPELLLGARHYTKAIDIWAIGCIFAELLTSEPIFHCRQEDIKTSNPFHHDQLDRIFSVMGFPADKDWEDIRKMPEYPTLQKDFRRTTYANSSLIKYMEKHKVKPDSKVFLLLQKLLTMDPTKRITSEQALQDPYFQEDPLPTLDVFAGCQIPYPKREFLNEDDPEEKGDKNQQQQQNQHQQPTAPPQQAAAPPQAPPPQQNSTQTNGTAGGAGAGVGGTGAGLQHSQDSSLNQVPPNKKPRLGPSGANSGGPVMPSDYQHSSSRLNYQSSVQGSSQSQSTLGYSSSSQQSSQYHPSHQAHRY
UniProt P49336: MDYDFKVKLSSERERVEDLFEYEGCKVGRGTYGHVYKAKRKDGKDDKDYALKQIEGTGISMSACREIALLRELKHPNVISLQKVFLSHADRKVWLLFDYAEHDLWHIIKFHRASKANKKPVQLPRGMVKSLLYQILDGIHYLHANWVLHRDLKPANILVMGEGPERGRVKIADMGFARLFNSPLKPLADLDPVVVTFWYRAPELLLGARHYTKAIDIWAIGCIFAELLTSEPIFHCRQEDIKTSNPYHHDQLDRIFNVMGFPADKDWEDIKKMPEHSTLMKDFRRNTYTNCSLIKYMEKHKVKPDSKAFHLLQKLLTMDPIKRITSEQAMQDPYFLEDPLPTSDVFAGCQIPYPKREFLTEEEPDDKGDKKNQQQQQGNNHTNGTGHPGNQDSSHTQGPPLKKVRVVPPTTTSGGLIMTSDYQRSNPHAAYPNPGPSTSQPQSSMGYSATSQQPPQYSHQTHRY

Tests used:
[1] = target: Cyclin-C/Cyclin-dependent kinase 19 (Homo sapiens, UniProt Q9BWU1); assay: Inhibition of CDK19/Cyclin-C (unknown origin) in presence of [gamma33P]ATP by radiometric method; assay type: protein-complex assay
CDK8/Cyclin C = CDK8/Cyclin C (Homo sapiens, UniProt P49336); assay: Inhibition of CDK8/Cyclin-C (unknown origin) in presence of [gamma33P]ATP by radiometric method; assay type: protein-complex assay

SMILES: CN1CCN(C(=O)c2ccc3cc(CCNc4ncnc5ccc(C#N)cc45)ccc3c2)CC1 [SENEXIN B]
- IC50 [1]: 4.2 nM
- IC50 (CDK8/Cyclin C): 24 to 50 nM
